Data taken from publication PMC6785039 (Nature, 2019).

Tested on: THP-1 cells
Assay type: cell-based, human
Settings: SLC19A1-depleted THP-1 or U937 cells

B1: hIFN-β: human interferon-β (PeproTech) (protein, UniProt P01574 22-187, looked up)
Interferon beta: MSYNLLGFLQRSSNFQCQKLLWQLNGRLEYCLKDRMNFDIPEEIKQLQQFQKEDAALTIYEMLQNIFAIFRQDSSSTGWNETIVENLLANVYHQINHLKTVLEEKLEKEDFTRGKLMSSLHLKRYYGRILHYLKAKEYSHCAWTIVRVEILRNFYFINRLTGYLRN
reporter response in SLC19A1-depleted cells: responded normally
